In article PMC12670426 (Journal of Medicinal Chemistry, 2025):
Read-outs that look alike come from different tables or passages of the source.

Sequences of proteins named here, by UniProt entry; tags and fusion partners are left off. Residues count along the entry.
UniProt P09382, 2-135: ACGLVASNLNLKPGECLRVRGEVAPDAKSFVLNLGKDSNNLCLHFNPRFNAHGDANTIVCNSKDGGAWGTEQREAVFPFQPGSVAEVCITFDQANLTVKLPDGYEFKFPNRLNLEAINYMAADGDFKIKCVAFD

Target: T1, human galectin-1 (Gal-1, full length) (Homo sapiens, UniProt P09382)
T1 construct: Gal-1 is a prototype galectin consisting of a single CRD and was used in full length; 6xHis tag with TEV protease site (N, cleaved yes); made in house; host or cells: BL21 Escherichia coli (pET-15b)
Test: Competitive fluorescence polarization assay, Gal-1
Type: binding
Procedure: Our investigation of the structure–activity relationship of N-aryl-N-lactosylamides started with an initial screening of substituted acetanilides (Table ). These compounds can be readily synthesized from a wide range of commercially available substituted anilines. Affinity was evaluated using a fluorescence polarization assay, which enables reliable determination of dissociation constants (K d) between small molecules and galectins. All inhibitors in this series were tested against the two most common human galectins: Gal-1 and Gal-3. Gal-1 is a prototype galectin consisting of a single CRD and was used in full length. In the case of Gal-3, which consists of the C-terminal CRD and N-terminal unfolded region, only the C-terminal domain was used (Gal-3C). Affinities were compared to methyl β-lactoside (β-LacOMe) as a baseline.
Fluorescence polarization experiments for determining inhibitor affinities were performed using the same instrumentation and settings as described for the direct binding experiments. […] The galectin–probe mixture was subsequently added using a Certus Flex liquid handler (Fritz Gyger AG, Switzerland) to reach a final volume of 5 μL. Anisotropy was measured after 30–60 min incubation at 25 °C. Inhibitor dissociation constants (K d) were calculated using Wang’s exact cubic model for competitive binding implemented in the BindCurve package. Protein and probe concentrations used in these competitive experiments are provided in the Supporting Information.
Competitive binding was modeled by Wang’s exact cubic model,3 which is written as […]
r = rmin + (rmax − rmin) 3 (6) […]
where r, rmin and rmax have the same meaning as in Equation 1. The coefficients a, b, and c are […]
a = Kd∗ + Kd + [L∗]T + [L]T − [R]T (7) b = Kd∗([L]T − [R]T) + Kd([L∗]T − [R]T) + Kd∗ Kd (8) […]
where Kd∗ is the dissociation constant of the probe, Kd is the dissociation constant of the […]
the unlabeled ligand, and [R]T is the total concentration of the receptor. The angle θ is defined […]
In the competitive binding experiments, the values of [L∗]T, [R]T and Kd∗ are known and [L]T is titrated. The values of minimal and maximal anisotropy rmin and rmax were fixed during fitting at the values of the minimal and maximal asymptotes obtained from the direct binding experiments. The value of Kd was calculated as the only unfixed parameter in the model.
Experimental constants used for the competitive fluorescence polarization experiments are […]
Table S2. Experimental constants used for competitive fluorescence polarization experiments. […]

IC50 (CSV supplement, unrounded mean, read-out: Gal1_IC50_mean_uM): 125 µM | Kd (CSV supplement, unrounded mean, read-out: Gal1_Kd_mean_uM): 88.2 µM | Kd (competitive fluorescence polarization, mean ± SD, read-out: Kd Gal-1): 88 ± 10 µM | IC50 (four-parameter logistic model, mean ± SD, read-out: IC50 Gal-1): 130 ± 5 µM
SMILES: OC[C@H]1O[C@@H](S[C@@H]2O[C@H](CO)[C@H](O)[C@H](O)[C@H]2O)[C@H](O)[C@@H](O)[C@H]1O [TDG, thiodigalactoside, reference compound]
